Compound activity: PubChem, Broad Institute
Hits are enriched below; roughly 1.8% of the tested compounds scored in any of these assays.
Cneo AK release: causes C. neoformans cell lysis; lysis activity, % at 15 µM; AID 651654; 360,000 compounds, 0.2% hits; adenylate kinase release luminescence, 4 h; normalised: neutral wells 0, clomiphene wells 100;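 active = mean lysis activity across replicates of at least 80%, whatever share of replicates individually reach that level; inactive = mean lysis activity below 80%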
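Material – Cryptococcus neoformans yeast cells · Quantity – 5 × 10^6 yeast cells/mL · Buffer or medium – YPD medium · Compound – single dose · Timing – 4 h static compound exposure, 37 °C, read 1 h post-reagent · Signal – adenylate kinase release luminescence · Read-out basis – lysis from increased AK signal · Benchmarks – Clomiphene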
Yeast UUG start: modulators of start codon recognition fidelity in yeast; activity score, % at 18.7 µM; actives 0.13% (n = 350,000); S. cerevisiae UUG-firefly luciferase reporter, luminescence/redox ratio;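 active = replicate mean at a twofold rise or more, about +100% in these data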;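 note: firefly luciferase made from a UUG start codon reports start codon fidelity; reporter light over untreated wells divided by growth signal over untreated wells; some hits fall short of that in this replicate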
E-selectin induc: induces E-selectin expression in human endothelial cells | P16581 | HUVEC E-selectin immunofluorescence imaging; normalized: neutral wells 0, TNF-alpha wells 100 | activation, % at 7.58 µM | 260,000 compounds, 0.37% hits;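 active = mean E-selectin-positive cell signal at least 10% of the positive control, reached in at least 60% of replicates, without over 20% cell loss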
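System: HUVEC, human umbilical vein endothelial cells; quantity: 3,000 cells/well; buffer or medium: EGM-2 medium, gelatin-coated wells; dosing: single-point compound dose; detection: immunofluorescence imaging; evaluation: % PE-positive cells; benchmarks: TNF-alpha, DMSO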
DENV2 CPE rescue: DENV2-induced cell death inhibition; DENV2-infected cells, cytopathic effect rescue, plate reader; CPE inhibition, % at 9.99 µM; 350,000 compounds, 1.7% hits; AID 651640; in the data active = CPE inhibition above about 20%, passing the limit was not always enough; tested in BHK-21 cells;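 also: 0% = median of neutral control wells and 100% = median of positive control wells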
Active calls of the source: *; . = no result; ! = a repeat was not active.

SMILES | Cneo AK release | Yeast UUG start | E-selectin induc | DENV2 CPE rescue
Fc1ccccc1CNCCc1c[nH]c2ccccc12 | 0 | -15 | 0 | 32*
COC(=O)[C@H]1[C@H](CO)[C@H]2Cn3c(ccc(-c4ccncc4)c3=O)[C@@H]1N2S(=O)(=O)c1ccccc1F | 1 | . | 0 | 1
OC1CN2CCCC(O)C2C1O (centres undefined) | . | . | . | 55*
COC(=O)[C@H]1[C@H](CO)[C@H]2Cn3c(ccc(/C=C/c4ccccc4)c3=O)[C@@H]1N2C(=O)C1CCC1 | -5 | 7 | 0 | -2
COC(=O)[C@@H]1[C@@H](CO)[C@@H]2Cn3c(ccc(C4=CCCC4)c3=O)[C@H]1N2Cc1ccccn1 | -5 | . | 0 | 118*
COC(=O)[C@H]1[C@H](CO)[C@H]2Cn3c(ccc(C4=CCCCC4)c3=O)[C@@H]1N2C(=O)Cc1ccccn1 | -3 | . | 0 | 7
COC(=O)[C@@H]1[C@@H](CO)[C@@H]2Cn3c(ccc(C4=CCCCC4)c3=O)[C@H]1N2Cc1ccccc1OC | . | . | 0 | 24*
O=C1CC[C@@]2(O)[C@H]3Cc4ccc(O)c5c4[C@@]2(CCN3CC2CC2)C1O5 (some centres undefined) | . | . | . | 28*!
COc1ccc2c3c1OC1C(=O)CC[C@@]4(O)[C@@H](C2)N(CC2CC2)CC[C@]314 (some centres undefined) | -1 | 0 | . | 11
N#Cc1cccc(-c2ccc([C@H]3[C@@H](CO)N4CCCCN(C(=O)Cc5cccnc5)C[C@H]34)cc2)c1 | 0 | -17 | 0 | 38*
O=C(Cc1cccnc1)N1CCCCN2[C@H](CO)[C@@H](c3ccc(C#CC4CCCC4)cc3)[C@H]2C1 | 4 | -9 | 0 | 40*
COc1ccc(C#Cc2ccc([C@@H]3[C@@H](CO)N4CCCCN(C(=O)Cc5ccncc5)C[C@@H]34)cc2)cc1 | 2 | -2 | 1 | 36*
N#Cc1cccc(-c2ccc([C@H]3[C@H](CO)N4CCCCN(C(=O)Cc5cccnc5)C[C@@H]34)cc2)c1 | 2 | 4 | 0 | 6
O=C(Cc1cccnc1)N1CCCCN2[C@H](CO)[C@H](c3ccc(C#CC4CCCC4)cc3)[C@H]2C1 | 0 | 4 | 0 | 13
O=C(Cc1cccnc1)N1CCCCN2[C@@H](CO)[C@@H](c3ccc(C#CC4CCCC4)cc3)[C@@H]2C1 | -10 | 3 | 0 | 32*
CCN1[C@@H]2c3ccc(-c4ccc(OC)cc4)c(=O)n3C[C@H]1[C@H](CO)[C@H]2C(=O)OC | 2 | . | 0 | 1
COC(=O)[C@@H]1[C@@H](CO)[C@@H]2Cn3c(ccc(C4=CCCCC4)c3=O)[C@H]1N2C(=O)Cc1ccccn1 | 0 | . | 0 | 4
CC(C)CC#Cc1ccc([C@@H]2[C@H](CO)N3CCCCN(C(=O)Cc4ccccn4)C[C@@H]23)cc1 | 2 | 38 | 0 | 16
COC(=O)[C@H]1[C@H](CO)[C@H]2Cn3c(ccc(-c4ccccc4F)c3=O)[C@@H]1N2C(=O)C1CC1 | -3 | . | 0 | -4
O=C(Cc1cccnc1)N1CCCCN2[C@@H](CO)[C@@H](c3ccc(C#CC4(O)CCCC4)cc3)[C@@H]2C1 | -10 | 33 | 0 | 40*
O=[N+]([O-])c1cccc(O)c1 | 2 | -8 | . | 25*
O=[N+]([O-])c1cccc(CCl)c1 | -2 | -16 | . | .
COc1ccc(C(=O)OC2C[C@H]3CC[C@@H](C2)N3O)cc1OC (some centres undefined) | 7 | -13 | 1 | 1
CN1C2CCC1CC(OC(=O)c1ccc([N+](=O)[O-])cc1)C2 (centres undefined) | . | . | . | 66*
CN1C2CCC1CC(OC(=O)c1cccc(O)c1)C2 (centres undefined) | -3 | -7 | . | 29*
Cc1cccc(CN2CCCC(C(=O)c3ccc4c(c3)OCO4)C2)n1 (centres undefined) | 0 | -9 | 33* | 5
N#Cc1cccc(-c2ccc([C@@H]3[C@@H](CO)N4CCCCN(C(=O)Cc5cccnc5)C[C@H]34)cc2)c1 | -1 | -15 | -1 | .
CN1CCN(c2cn[nH]c(=O)c2Cl)CC1 | 7 | -6 | 46* | 2
CN1CCN(c2ccc([N+](=O)[O-])cc2Cl)CC1 | . | . | -2 | .
COc1ccc(C#Cc2ccc([C@H]3[C@H]4CN(C(=O)Cc5cccnc5)CCCCN4[C@H]3CO)cc2)cc1 | 0 | 10 | 0 | 5
COc1ccc(-n2nnnc2C(CCc2ccccc2)N2CCC(n3c(=O)[nH]c4ccccc43)CC2)cc1 (centres undefined) | 0 | -13 | 0 | 56*

By substructure, those above containing an NH in an aromatic ring.
SMILES | Cneo AK release | Yeast UUG start | E-selectin induc | DENV2 CPE rescue
Fc1ccccc1CNCCc1c[nH]c2ccccc12 | 0 | -15 | 0 | 32*
CN1CCN(c2cn[nH]c(=O)c2Cl)CC1 | 7 | -6 | 46* | 2
COc1ccc(-n2nnnc2C(CCc2ccccc2)N2CCC(n3c(=O)[nH]c4ccccc43)CC2)cc1 (centres undefined) | 0 | -13 | 0 | 56*
